Among the data in PubChem BioAssay AID1117319 (Southern Research Institute, 2015) are inhibition values, retold here.

This is one part of the list. Some results for these compounds are left out of this collection, so the calls shown say nothing about other tests. Records with an inconclusive call do not appear. Active and inactive are the calls of the source.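 Rule for the calls: active = inhibition above a set limit at one or more doses, reproduced on every date tested; inconclusive = results disagree between test dates, or hit never tested in dose response; inactive = the rest.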

For this assay, the target named is Virion infectivity factor (Human immunodeficiency virus type 1 group M subtype B (isolate BH10)) + Virion infectivity factor (Human immunodeficiency virus type 1 group M subtype B (isolate BRU/LAI)) + Virion infectivity factor (Human immunodeficiency virus type 1 group M subtype B (isolate PCV12)) + Virion infectivity factor (Human immunodeficiency virus type 1 group M subtype B (isolate HXB2)) + DNA dC->dU-editing enzyme APOBEC-3G (Homo sapiens) (UniProt P69720+P69721+P69722+P69723+Q9HC16). Description: HIV-1 Vif–A3G interaction blockers – biochemical, TR-FRET, GST-Vif 1-94, biotin-A3G peptide, dose response retest, primary screen (AID 1117319).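 Note: Vif residues 1-94 fused to GST binding biotinylated APOBEC3G peptide 110-148; 0% = full assay without inhibitor and 100% = GST in place of GST-Vif.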 The note with it: TR-FRET GST-Vif / biotin-A3G peptide binding; active compounds read high. Background: TR-FRET usually uses a lanthanide donor and a delayed reading to cut background.
One may read the inhibition as the change of the read-out against control, counted positive when it falls. Regarding `CN(C)C1(CNC(=O)c2ccc(Br)cc2)CCCCC1`, the inhibition was inactive: -5.31%.
As for `COc1cc(C(=O)NCC2(N(C)C)CCCCC2)c([N+](=O)[O-])cc1OC`, the figure is inactive: -8.7%; as for `COc1ccc(Cl)cc1C(=O)NCC1(N(C)C)CCCCC1`, inactive: -7.37%.
In the case of `O=C(OC1CN2CCC1CC2)C(CO)(c1ccccc1)c1ccccc1` (stereo unspecified) it was inactive: -5.02%; in that of `O=C(OCCN1CCCC1)C(O)(c1ccccc1)c1ccccc1`, inactive: 3.34%.
In the case of `CC(C)Oc1ccc(C(=O)NCC2(N(C)C)CCCCC2)cc1` it was inactive: -2.76%; in that of `CN(C)c1cccc(C(=O)NCC2(N(C)C)CCCCC2)c1`, inactive: 8.96%.
For the molecule `CN1[C@@H]2CC[C@H]1CC(OC(=O)C(O)(c1ccccc1)c1ccccc1)C2` (stereo partly specified), the inhibition is inactive: -7.58%.
In the case of `COc1cc(SC)ccc1C(=O)NCC1(N(C)C)CCCCC1` it was inactive: -5.92%.
In the case of `CCN(CC)CC(C)C(C)OC(=O)C(O)(c1ccccc1)c1ccccc1` (stereo unspecified) it was inactive: -8.76%; in that of `CC(C)N1C(=O)CC2(CCN(CCOC(=O)C(O)(c3ccccc3)c3ccccc3)CC2)C1=O`, inactive: -5.87%.
In the case of `CN(C)c1ccc(C(=O)NCC2(N(C)C)CCCCC2)cc1` it was inactive: 3.06%; in that of `O=C(NCC1(N2CCCCC2)CCCCC1)c1cc(F)c(F)cc1Cl`, inactive: -4.83%; in that of `C=CCN1CCN(CCOC(=O)C(O)(c2ccccc2)c2ccccc2)CC1`, inactive: -7.5%.
In the case of `COc1ccc(C(=O)NCC2(N(C)C)CCCCC2)cc1`, the inhibition was inactive: -4.27%.
Regarding `Cc1cc(C(=O)NCC2(N3CCCCC3)CCCCC2)ccc1[N+](=O)[O-]`, the inhibition is inactive: 0.59%.
